Measured values taken from patent US20110046887A1, “METHOD FOR ASSESSING PATHWAY PRODUCT LEVELS” (priority 2006, published 2011).

Assay: Bayesian deconvolution of 24-hr pituitary-hormone concentration profiles (secretion and elimination parameters)
Format: in vivo, human
Settings: for Slow Half-Life: 24-hr 10-min sampled profile
Experimental: The experimentalist requires an automated procedure by which to simultaneously detect pulse times and estimate secretion/kinetic features. […] In each case, discrete blood sampling (i.e., the withdrawal lasting 5-10 sec) was performed every 10 min for 24 hr. [Integrative sampling (continuous withdrawal) yields a time-integrated or flattened version of the impulse, thereby underestimating absolute peak values and overestimating interpulse valleys.] If the set (Y1, Y2, . . . , Yn) denotes observed hormone concentrations, n would be 145 for 10-min sampling over 24 hr. […] One would like to find values (a,b) so that, for a specified probability, e.g., 0.95, one can make the following probability statement:
Assuming that pulse-onset times are given by ℑm={T^1, T^2 . . . , T^m}, Keenan and Veldhuis give a model to estimate secretory dynamics conditional on pulse times (Keenan & Veldhuis, 1998; Keenan et al., 2000; Keenan et al., 1998). The primary components are basal and pulsatile secretion, a flexible secretory-burst shape, random effects on burst mass, biexponential elimination kinetics and combined experimental uncertainty in sample collection, processing and assay. We suppose that M, the amount of hormone secreted in the j^th burst (mass per unit distribution volume), is the sum of a finite amount of minimally available stores, a linear function of hormone accumulation over the preceding interpulse interval, and a random effect allowing for biological variability in individual burst mass:
In the present Bayesian approach, an a priori (prior) probability distribution is placed on the parameter space: Θ×ℑ, where ℑ={ℑN, ℑN-1, . . . , ℑp} in Eq. [16] and Θ denotes the parameter set in Eq. [14]. The prior density on Θ×ℑ is assumed to be a product: π×λ, with a uniform prior on Θ, π(θ)∝ to a Constant. The prior on ℑ is the Akaike Information Criterion (AIC) penalty for the number of pulse times m, λ(ℑm)∝exp(−m). […] Measured data Y=(Y1, Y2, . . . , Yn)′ are then incorporated via a likelihood function (Eq. [15]), resulting in the a posteriori (posterior) probability distribution on Θ×ℑ:
The algorithm of the present paper utilizes a mathematically justified procedure for simulating from the joint (Θ×ℑ) posterior distribution (Eq. [18]). The basic idea is that, for a given hormone concentration profile, one generates an array of (e.g. 100) simulations from the posterior distribution, which allows one then to make probabilistic statements about the parameters of pulse times, secretion and elimination.
total basal secretion as: n×β0, and total pulsatile as the difference. Repeated sampling of (θ,ℑm), and calculation of total pulsatile secretion (for each), produces a probability histogram approximating the posterior distribution for total pulsatile secretion, given an observed concentration profile. […] Specifically, in reference to Eq. [9]
Histograms are based on 100 simulations from the joint posterior distribution.

**Q.** With luteinizing hormone [LH] as the substance, how does the “Slow Half-Life” value (0.05 quantile of posterior distribution, ACTH, LH young, GH person) read?
**A.** 114 min

**Q.** What about the “Slow Half-Life” value (0.05 quantile of posterior distribution, LH older person (postmenopausal)) of the same substance?
**A.** 19 min

**Q.** And the “Slow Half-Life” value (0.25 quantile of posterior distribution, ACTH, LH young, GH person)?
**A.** 115 min

**Q.** And the “Slow Half-Life” value (0.25 quantile of posterior distribution, LH older person (postmenopausal))?
**A.** 21 min

**Q.** And the “Slow Half-Life” value (0.50 quantile of posterior distribution, ACTH, LH young, GH person)?
**A.** 116 min

**Q.** And the “Slow Half-Life” value (0.50 quantile of posterior distribution, LH older person (postmenopausal))?
**A.** 26 min

**Q.** And the “Slow Half-Life” value (0.75 quantile of posterior distribution, ACTH, LH young, GH person)?
**A.** 120 min

**Q.** And the “Slow Half-Life” value (0.75 quantile of posterior distribution, LH older person (postmenopausal))?
**A.** 86 min

**Q.** And the “Slow Half-Life” value (0.95 quantile of posterior distribution, ACTH, LH young, GH person)?
**A.** 125 min

**Q.** What about the “Slow Half-Life” value (0.95 quantile of posterior distribution, LH older person (postmenopausal)) of the same substance?
**A.** 135 min

**Q.** What about the half-lives (ACTH in a LH person, illustrative data sets) of the same substance?
**A.** 118 min
